The record followed here is PubChem BioAssay (Tox21).

Protein sequences, listed by entry. Tags and fused reporters are not part of them.
UniProt P28223, whole entry, looked up: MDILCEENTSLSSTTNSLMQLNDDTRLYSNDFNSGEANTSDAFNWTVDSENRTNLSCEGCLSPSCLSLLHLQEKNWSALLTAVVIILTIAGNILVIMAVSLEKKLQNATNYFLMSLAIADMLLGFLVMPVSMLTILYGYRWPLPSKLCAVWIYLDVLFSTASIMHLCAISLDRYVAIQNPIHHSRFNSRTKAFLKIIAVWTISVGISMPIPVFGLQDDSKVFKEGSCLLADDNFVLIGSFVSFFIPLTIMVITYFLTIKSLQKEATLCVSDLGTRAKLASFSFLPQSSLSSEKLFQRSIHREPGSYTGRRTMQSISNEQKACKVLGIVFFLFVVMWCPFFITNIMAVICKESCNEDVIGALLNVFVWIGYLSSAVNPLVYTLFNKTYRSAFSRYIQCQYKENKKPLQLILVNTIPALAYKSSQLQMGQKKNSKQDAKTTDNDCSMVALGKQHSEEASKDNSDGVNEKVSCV

The test addresses 5-hydroxytryptamine receptor 2A (Homo sapiens) (UniProt P28223). In words: 5-hydroxytryptamine receptor 2A (HTR2A) small molecule antagonists, cell-based qHTS assay (AID 1963586). Note: nearly all actives have a fitted effect of over 45% in size. The method in brief:
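CHO cells stably expressing human HTR2A were plated for 18 h at 37 C, then loaded with calcium dye for 1 h. Compounds were preincubated 5 min at room temperature before DOI (4 nM solution) was added. Kinetic fluorescence was read for 3 min.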
(qHTS replaces the single test concentration by a dilution series.)

The list shows a part of the results, in another mix than the full data. Results filed as inconclusive are left out. Where a call stands in place of a potency, no number is given. Calls of active or inactive are those of the source. Calls come from the whole dose curve.
Potency is the fitted concentration of half-maximal effect.

As to `COc1ccc(OC)c(CC(C)N)c1` (configuration not stated), the Potency is active: 71.6 nM. The entry for `CC(Cc1ccc(O)cc1)NCC(O)c1cc(O)cc(O)c1` (configuration not stated) is “inactive”.
